{
  "source": "patent US4710564A",
  "about": "“Anthracycline compounds” (Microbial Chemistry Research Foundation, priority 1985, dated 1987)",
  "key": {"[1]": {"test_system": "sensitive P 388 leukemia cells (P 388/S)", "test": "cells", "format": "cell-based", "conditions": "for IC50: Mus musculus, P388, 48 h, read-out: IC50 P388/S"}, "[2]": {"test_system": "heart", "conditions": "hamster, in vivo"}},
  "data": [
    {"molecule": "CCC1(O)Cc2cc3c(c(O)c2C(OC2CC(N4CCOCC4)C(O)C(C)O2)C1)C(=O)c1c(O)cccc1C3=O", "note": "(stereo not drawn) [3'-deamino-3'-(4-morpholinyl)-R20Y5]", "values": [
      {"measurement": "IC50", "setting": "[1]", "result": 0.1, "unit": "µg/mL"}
    ]},
    {"molecule": "CCC1(O)Cc2c(O)c3c(c(O)c2C(OC2CC(N4CCOCC4)C(O)C(C)O2)C1)C(=O)c1c(O)cccc1C3=O", "note": "(stereo not drawn) [3'-deamino-3'-(4-morpholinyl)-R20X]", "values": [
      {"measurement": "IC50", "setting": "[1]", "result": 0.033, "unit": "µg/mL"}
    ]},
    {"molecule": "CCC1(O)CC(OC2CC(N3CCOCC3)C(O)C(C)O2)c2c(O)c3c(c(O)c2C1O)C(=O)c1cccc(O)c1C3=O", "note": "(stereo not drawn) [3'-deamino-3'-(4-morpholinyl)-R20X2]", "values": [
      {"measurement": "IC50", "setting": "[1]", "result": 0.009, "unit": "µg/mL"}
    ]},
    {"molecule": "CC[C@@]1(O)C[C@H](O[C@H]2C[C@H](N(C)C)[C@H](O[C@H]3C[C@H](O)[C@H](O[C@H]4CCC(=O)[C@H](C)O4)[C@H](C)O3)[C@H](C)O2)c2c(cc3c(c2O)C(=O)c2c(O)cccc2C3=O)[C@H]1C(=O)OC", "note": "[Aclacinomycin, reference compound]", "values": [
      {"measurement": "IC50 P388/S", "setting": "[1]", "result": 0.013, "unit": "µg/mL"}
    ]},
    {"molecule": "COc1cccc2c1C(=O)c1c(O)c3c(c(O)c1C2=O)C[C@@](O)(C(=O)CO)C[C@@H]3O[C@H]1C[C@H](N)[C@H](O)[C@H](C)O1", "note": "[Adriamycin, reference compound]", "values": [
      {"measurement": "toxicity to the heart at dosage level where antitumor activity starts", "setting": "[2]", "result": "toxic to the heart"},
      {"measurement": "IC50", "setting": "[1]", "result": 0.012, "unit": "µg/mL"}
    ]}
  ]
}
